Our source for the inhibition values is PubChem BioAssay AID485317 (Broad Institute, 2010).

The chains behind the UniProt entries cited, without tags or fusion partners.
UniProt P55789, whole entry: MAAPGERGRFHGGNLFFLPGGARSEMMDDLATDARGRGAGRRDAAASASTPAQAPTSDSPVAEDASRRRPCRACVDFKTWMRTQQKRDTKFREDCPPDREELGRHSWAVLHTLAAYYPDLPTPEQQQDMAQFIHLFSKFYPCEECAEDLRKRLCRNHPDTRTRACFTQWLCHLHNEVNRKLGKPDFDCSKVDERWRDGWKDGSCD

The structures appear in SMILES notation. The entries are a selection whose mix differs from that of the whole data set. Active and inactive are the calls of the source.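 Rule for the calls: active = mean replicate inhibition above about 79%, with every replicate also reaching it (limit read from the data); inconclusive = only one of the two criteria met; inactive = mean below limit and not every replicate reaching it.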

In this assay the target is FAD-linked sulfhydryl oxidase ALR (Homo sapiens) (UniProt P55789). The assay can be described thus: inhibitors of human ALR sulfhydryl oxidase, primary screen, biochemical, H2O2 detection, HRP-luminol luminescence, single point (AID 485317). The settings on record: purified ALR, DTT oxidation, stronger effect = higher value, concentration not given here.
Take `COC(=O)c1cc2c(s1)N=C(c1ccccc1)N(C)P2(=O)N1CCOCC1` (stereo not drawn): the inhibition was inactive: -12.6%. Then `Cc1ccc(OP(=O)(Nc2ccccn2)Oc2ccc(C)cc2)cc1`, with inactive: -2.36%; and `COc1ccc(OP(C)(=O)Nc2ccccc2Br)cc1` (stereo not drawn), with inactive: -5.87%. Regarding `CCOP(=O)(Nc1ccccc1)OCC`, the inhibition is inactive: 0.652%. For `Cc1cc(SC(NC(=O)c2ccc(F)cc2)C(Cl)(Cl)Cl)ncn1` (stereo not drawn), the inhibition is inactive: 34%. Take `Cc1ccc(NP(=O)(Oc2ccccc2F)Oc2ccccc2F)nc1`: the inhibition is inactive: -5.8%.

For the compound `COc1ccccc1OP(C)(=O)Nc1ccc(C)c(C)c1` (stereo not drawn), the inhibition was inactive: 1.09%.

Turning to `Cc1cc(C)cc(OP(C)(=O)Nc2cccc(C(F)(F)F)c2)c1` (stereo not drawn), the inhibition is inactive: -4.87%. As for `O=P(Nc1nc2ccc(Cl)cc2s1)(c1ccccc1)c1ccccc1`, the inhibition was inactive: -2.81%.

For the compound `Nc1cccc2ccc([As](=O)(O)O)cc12`, the inhibition is inactive: -31.6%. The value for `CP(=O)(OCCOc1ccccc1)OCCOc1ccccc1` was inactive: -2.5%; that for `CP(=O)(Nc1ccc(Cl)cc1Cl)Oc1ccccc1` (stereo not drawn) was inactive: -4.06%. For the compound `CCN(N=Nc1nonc1N)c1nonc1N`, the inhibition was inactive: -3.31%. `O=[N+]([O-])c1cc([N+](=O)[O-])c(CCN2CCOCC2)c([N+](=O)[O-])c1`: the inhibition is inactive: 30.9%. For the compound `Cc1nc2ccc3ccccc3c2o1.O=[N+]([O-])c1cc([N+](=O)[O-])c(O)c([N+](=O)[O-])c1`, the inhibition was active: 98.9%. As to `CN(C)CCOC(=O)C(O)(c1ccccc1)C1CCCC1` (stereo not drawn), the inhibition is inactive: -3.19%.

In the case of `CN1CCCC(OC(=O)C(c2ccccc2)c2ccccc2)C1` (stereo not drawn), the inhibition is inactive: -4.41%. On to `COc1ccccc1OP(=O)(Nc1ccc(C)cn1)Oc1ccccc1OC`, for which the inhibition is inactive: -3.6%. The value for `Cc1ccc(OP(=O)(Nc2nccs2)Oc2ccc(C)cc2)cc1` was inactive: -0.917%; that for `COc1ccccc1OP(C)(=O)Nc1ccc(Br)cc1` (stereo not drawn) was inactive: -6.89%. Then `Cc1ccc(N/C(=N/P(=O)(N2CCOCC2)N2CCOCC2)N2CCOCC2)cc1`, with inactive: 2.59%. As for `NC(=O)c1cc([N+](=O)[O-])cc([N+](=O)[O-])c1N`, the inhibition was inactive: -29.2%. Then `CCc1ccc(OP(C)(=O)O)cc1`, with inactive: -2.02%; and `CP(=O)(Nc1ccccn1)Oc1ccccc1` (stereo not drawn), with inactive: -3.21%. The value for `Oc1ccccc1CNc1ccccn1` was inactive: 8.72%; that for `Cc1c2non([O-])c-2c(C)[n+](=O)[n+]1[O-]` was inactive: -1.17%; that for `O=C(NC(Sc1ccncn1)C(Cl)(Cl)Cl)c1ccccc1` (stereo not drawn) was inactive: 21%. The value for `CC(C)CC(=O)NC(Sc1ccc(Cl)cc1)C(Cl)(Cl)Cl` (stereo not drawn) was inactive: -0.633%; that for `O=[N+]([O-])c1cc([N+](=O)[O-])c(Nc2ccccn2)c([N+](=O)[O-])c1` was inactive: -25.5%. Regarding `Cc1c(NP(C)(=O)Oc2ccc(C(C)C)cc2)c(=O)n(-c2ccccc2)n1C` (stereo not drawn), the inhibition is inactive: 6.46%. Then `Cc1ccc(NP(=O)(Oc2ccccc2)Oc2ccccc2)nc1`, with inactive: -1.33%; and `CP(=O)(Oc1ccccc1)N1CCOC1=O` (stereo not drawn), with inactive: 9.99%.

As to `CCc1nc2c(n1)c1c(non1O)c1c2no[n+]1[O-]`, the inhibition is inactive: 15.1%. Then `O=[N+]([O-])c1cc([N+](=O)[O-])c(CCNc2ccccc2)c([N+](=O)[O-])c1`, with inactive: -13.8%; and `CCc1ccc(OP(C)(=O)Nc2cccnc2)cc1` (stereo not drawn), with inactive: 0.526%.

For the compound `COc1ccccc1OP(C)(=O)Nc1c(C)n(C)n(-c2ccccc2)c1=O` (stereo not drawn), the inhibition is inactive: 19.2%. Then `O=[N+]([O-])c1cccc2n[nH]nc12`, with inactive: -3.55%. In the case of `CC(=O)N1C2C3N(C(C)=O)C1C1N(C(C)=O)C(C(N1C(C)=O)N3C(C)=O)N2C(C)=O`, the inhibition is inactive: -2.12%. With `O=C(OCCCN1CCCC1)C(O)(c1ccccc1)C1CCCCC1` (stereo not drawn), the inhibition is inactive: -11.9%. On to `CCN(CC)CC(O)COC(=O)C(O)(c1ccccc1)C1CCCCC1` (stereo not drawn), for which the inhibition was inactive: 6.68%. For `COc1ccc(C2=NCC(CBr)S2)cc1` (stereo not drawn), the inhibition was inactive: -5.34%.

In the case of `CC1CCN(C(=O)Oc2c(Cl)cc(Cl)c3cccnc23)CC1`, the inhibition is inactive: 4.14%. As for `CN(C)C(=O)c1c([N+](=O)[O-])cc([N+](=O)[O-])cc1[N+](=O)[O-]`, the inhibition is inactive: -54.3%.

For the compound `CC(C)=N/N=C(\N)N[N+](=O)[O-]`, the inhibition was inactive: -3.57%. Then `CN(C)C(=O)OCCc1n(C)cc[n+]1C`, with inactive: -3.6%; and `CCN(/C(=N/P(=O)(N1CCOCC1)N1CCOCC1)N1CCOCC1)c1ccc(OC)cc1`, with inactive: -12.5%; and `CP(=O)(Nc1ccc(Cl)cc1)Oc1ccc(F)cc1` (stereo not drawn), with inactive: -2.14%. The value for `CC(C)(C)c1ccc(OP(C)(=O)O)cc1` was inactive: 8.05%; that for `Nc1ccc([As](=O)(O)c2ccc(N)cc2)cc1` was inactive: -1.2%.

With `COc1ccccc1OP(C)(=O)Nc1ccccc1Br` (stereo not drawn), the inhibition was inactive: -5.2%. Then `C[N+]1=C2C=CC=CC=C2SC12C([N+](=O)[O-])=CC([N+](=O)[O-])=C[C-]2[N+](=O)[O-]` (stereo not drawn), with inactive: -10.9%; and `CP(=O)(OC12CC3CC(CC(C3)C1)C2)OC12CC3CC(CC(C3)C1)C2`, with inactive: -7.02%; and `CCOC(=O)c1ccc(NP(C)(=O)Oc2ccc(Cl)cc2)cc1` (stereo not drawn), with inactive: -10%.

Regarding `O=C(Nc1cc([As](=O)(O)O)ccc1O)c1ccccc1`, the inhibition is inactive: -0.303%. The value for `Nc1ccc2c(ccc3cccnc32)n1.O=[N+]([O-])c1cc([N+](=O)[O-])c(O)c([N+](=O)[O-])c1` was inactive: -9.68%; that for `O=C(O)CNc1ccc([As](=O)(O)O)cc1` was inactive: -3.4%. Then `O=[N+]([O-])c1ncn(CCn2ncnc2[N+](=O)[O-])n1`, with inactive: -20.9%; and `CC(C)(C)C(=O)NC(Sc1ccncn1)C(Cl)(Cl)Cl` (stereo not drawn), with inactive: 14.8%.

As a reminder, the inhibition is the relative decrease from the control value, in per cent.
